{"source": "patent US20230107216A1", "about": "“PANTETHEINE DERIVATIVES AND USES THEREOF” (Comet Therapeutics, Inc., priority 2018, published 2023)", "key": {"[1]": {"test_system": "Venular Endothelial cells (HUVEC) (4H system)", "assay": "BioMAP 4H system (IL-4 and histamine)", "format": "cell-based, human", "conditions": "10 uM; procedure of Example 826"}, "[2]": {"test_system": "Dermal fibroblasts (HDF3CGF system)", "assay": "BioMAP HDF3CGF system (IL-1β, TNFα, IFNγ, EGF, bFGF, PDGF-BB)", "format": "cell-based, human", "conditions": "10 uM"}, "[3]": {"test_system": "Bronchial epithelial cells (BE3C system)", "assay": "BioMAP BE3C system (IL-1β, TNFα, IFNγ)", "format": "cell-based, human", "conditions": "10 uM; procedure of Example 831"}, "[4]": {"test_system": "Peripheral blood mononuclear cells co-cultured with venular endothelial cells (HUVEC) (LPS system)", "assay": "BioMAP LPS system", "format": "cell-based, human", "conditions": "procedure of Example 827"}, "[5]": {"test_system": "Coronary artery smooth muscle cells (CASM3C system)", "assay": "BioMAP CASM3C system (IL-1β, TNFα, IFNγ)", "format": "cell-based, human", "conditions": "1 uM"}, "[6]": {"test_system": "Bronchial epithelial cells co-cultured with dermal fibroblast (BF4T system)", "assay": "BioMAP BF4T system (TNFα and IL-4)", "format": "cell-based, human", "conditions": "procedure of Example 830"}, "HepG2 cells": {"test_system": "HepG2 cells", "assay": "Glucose uptake (Glucose Uptake-Glo)", "format": "cell-based, human", "conditions": "50 uM"}, "[7]": {"test_system": "Peripheral blood mononuclear cells co-cultured with B-cells (BT system)", "assay": "BioMAP BT system (α-IgM and TCR ligands)", "conditions": "procedure of Example 829"}}, "data": [{"compound": "COC(=O)CCC(=O)CC(=O)SCCNC(=O)CCNC(=O)[C@H](O)C(C)(C)COP(=O)(O)O", "values": [{"measurement": "% decrease in E-Selectin", "setting": "[1]", "result": "≥20", "unit": "%"}, {"measurement": "% decrease in Collagen III", "setting": "[2]", "result": "≥20", "unit": "%"}, {"measurement": "% decrease in M-CSF", "setting": "[2]", "result": "≥10", "unit": "%"}, {"measurement": "% decrease in TIMP-2", "setting": "[2]", "result": "≥20", "unit": "%"}, {"measurement": "% increase in 72 Hour Proliferation", "setting": "[2]", "result": "≥10", "unit": "%"}, {"measurement": "% increase in PAI-I", "setting": "[2]", "result": "≥20", "unit": "%"}, {"measurement": "% decrease in CXCL11/I-TAC", "setting": "[2]; procedure of Example 833", "result": "≥10", "unit": "%"}, {"measurement": "% decrease in uPA", "setting": "[3]", "result": "≥10", "unit": "%"}, {"measurement": "% increase in PAI-I", "setting": "[3]", "result": "≥10", "unit": "%"}, {"measurement": "% increase in sTNFα", "setting": "[4]; 1 uM", "result": "≥20", "unit": "%"}, {"measurement": "% decrease in M-CSF", "setting": "[4]; 10 uM", "result": "≥10", "unit": "%"}, {"measurement": "% decrease in Thrombomodulin", "setting": "[4]; 10 uM", "result": "≥20", "unit": "%"}, {"measurement": "% decrease in sPGE2", "setting": "[4]; 10 uM", "result": "≥10", "unit": "%"}, {"measurement": "% increase in sPGE2", "setting": "[4]; 10 uM", "result": "≥20", "unit": "%"}, {"measurement": "% decrease in Thrombomodulin", "setting": "[5]", "result": "≥10", "unit": "%"}, {"measurement": "% decrease in VCAM-1", "setting": "[5]; procedure of Example 832", "result": "≥10", "unit": "%"}, {"measurement": "% decrease in MMP-9", "setting": "[6]; 1 uM", "result": "≥10", "unit": "%"}, {"measurement": "% decrease in tPA", "setting": "[6]; 10 uM", "result": "≥10", "unit": "%"}, {"measurement": "% increase in Glucose Uptake", "setting": "HepG2 cells", "result": "≥30", "unit": "%"}, {"measurement": "% increase in sIL-6", "setting": "[7]; 1 uM", "result": "≥10", "unit": "%"}, {"measurement": "% decrease in B-cell proliferation", "setting": "[7]; 10 uM", "result": "≥20", "unit": "%"}, {"measurement": "% decrease in sIL-6", "setting": "[7]; 10 uM", "result": "≥10", "unit": "%"}, {"measurement": "% decrease in sIL-17", "setting": "[7]; 10 uM", "result": "≥20", "unit": "%"}, {"measurement": "% increase in sIL-2", "setting": "[7]; 10 uM", "result": "≥20", "unit": "%"}]}]}
